For one series, the target named is T1, amylin receptors (Rattus norvegicus, UniProt P32214).
T1 construct: nuclueus accumbens membranes prepared from rat brain; from tissue; host or cells: rat basal forebrain / nucleus accumbens membranes (male Sprague-Dawley rats)
T1 sequence (P32214 25-516): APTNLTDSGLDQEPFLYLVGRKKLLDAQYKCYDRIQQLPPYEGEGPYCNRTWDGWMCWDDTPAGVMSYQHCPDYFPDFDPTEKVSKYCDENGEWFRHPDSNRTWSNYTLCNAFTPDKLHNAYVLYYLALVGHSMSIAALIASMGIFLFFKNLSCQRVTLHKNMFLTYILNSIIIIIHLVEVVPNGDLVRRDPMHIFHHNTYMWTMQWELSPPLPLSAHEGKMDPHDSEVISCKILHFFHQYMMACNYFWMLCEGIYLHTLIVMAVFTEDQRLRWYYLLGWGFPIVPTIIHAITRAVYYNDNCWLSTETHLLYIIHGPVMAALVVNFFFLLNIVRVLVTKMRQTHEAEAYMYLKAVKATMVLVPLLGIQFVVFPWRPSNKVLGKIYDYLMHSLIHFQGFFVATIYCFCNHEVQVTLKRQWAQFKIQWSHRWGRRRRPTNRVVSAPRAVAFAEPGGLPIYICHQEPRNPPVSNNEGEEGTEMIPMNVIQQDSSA
T1 sequence (Q9JJ74 27-148 partner): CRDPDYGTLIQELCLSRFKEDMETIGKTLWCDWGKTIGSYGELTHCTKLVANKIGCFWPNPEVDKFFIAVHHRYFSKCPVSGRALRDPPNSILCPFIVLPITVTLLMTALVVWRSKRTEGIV
The series is classed as binding.

By UniProt entry, the sequences of proteins in these tests, tags left out. Residues count along the entry.
UniProt O60894, 27-148 partner: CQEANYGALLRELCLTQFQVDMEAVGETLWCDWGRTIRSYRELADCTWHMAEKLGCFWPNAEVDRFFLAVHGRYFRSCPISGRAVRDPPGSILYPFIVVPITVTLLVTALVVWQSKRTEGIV
UniProt Q16602, 23-461: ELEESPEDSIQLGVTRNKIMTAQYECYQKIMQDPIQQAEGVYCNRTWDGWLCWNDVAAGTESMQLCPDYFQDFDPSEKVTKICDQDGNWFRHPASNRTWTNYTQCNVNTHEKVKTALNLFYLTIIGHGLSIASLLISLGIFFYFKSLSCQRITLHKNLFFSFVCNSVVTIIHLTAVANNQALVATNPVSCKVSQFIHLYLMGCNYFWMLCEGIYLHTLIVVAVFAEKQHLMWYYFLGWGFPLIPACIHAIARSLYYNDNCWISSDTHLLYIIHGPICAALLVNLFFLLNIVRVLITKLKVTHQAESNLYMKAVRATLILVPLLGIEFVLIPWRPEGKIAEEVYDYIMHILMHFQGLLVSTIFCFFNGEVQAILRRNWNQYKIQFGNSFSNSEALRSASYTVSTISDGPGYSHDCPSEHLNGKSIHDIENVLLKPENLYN

The next series concerns the target T2, calcitonin receptor (Rattus norvegicus, UniProt P32214).
T2 construct: host or cells: general text: 'CHO cells or T47D cells'
T2 sequence (P32214 25-479 isoform P32214-2 limits assumed): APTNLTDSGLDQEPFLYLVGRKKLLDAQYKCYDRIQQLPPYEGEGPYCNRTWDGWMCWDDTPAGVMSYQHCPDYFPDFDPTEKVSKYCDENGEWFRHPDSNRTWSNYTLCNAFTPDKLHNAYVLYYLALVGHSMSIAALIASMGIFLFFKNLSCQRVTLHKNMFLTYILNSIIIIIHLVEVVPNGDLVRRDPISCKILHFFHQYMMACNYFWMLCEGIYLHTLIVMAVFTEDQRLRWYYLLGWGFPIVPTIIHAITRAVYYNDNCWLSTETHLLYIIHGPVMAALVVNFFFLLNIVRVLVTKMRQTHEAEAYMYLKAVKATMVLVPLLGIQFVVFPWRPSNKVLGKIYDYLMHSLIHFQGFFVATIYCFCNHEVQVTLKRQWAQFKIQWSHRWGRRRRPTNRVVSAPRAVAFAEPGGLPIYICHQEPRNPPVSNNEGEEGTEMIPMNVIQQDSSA
The following applies: b373; read-out: IC50 in a CT receptor binding assay.

Another series deals with T3, CGRP receptors (Homo sapiens, UniProt O60894+Q16602).
T3 construct: SK-N-MC and L6 cells expressing endogenous CGRP receptors; endogenous in cells; host or cells: SK-N-MC cells (membranes)
It is filed as binding.

The conditions of series [1]: active GLP-1; cited from earlier work.
The target in another series is T4, GLP-1 receptor (Rattus norvegicus, UniProt P32301).
T4 construct: Homogenized RINm5F cell membranes are incubated; endogenous in cells; host or cells: RINm5F cells (membranes); 'RIN' for the cyclase read-out
T4 sequence (P32301 22-463): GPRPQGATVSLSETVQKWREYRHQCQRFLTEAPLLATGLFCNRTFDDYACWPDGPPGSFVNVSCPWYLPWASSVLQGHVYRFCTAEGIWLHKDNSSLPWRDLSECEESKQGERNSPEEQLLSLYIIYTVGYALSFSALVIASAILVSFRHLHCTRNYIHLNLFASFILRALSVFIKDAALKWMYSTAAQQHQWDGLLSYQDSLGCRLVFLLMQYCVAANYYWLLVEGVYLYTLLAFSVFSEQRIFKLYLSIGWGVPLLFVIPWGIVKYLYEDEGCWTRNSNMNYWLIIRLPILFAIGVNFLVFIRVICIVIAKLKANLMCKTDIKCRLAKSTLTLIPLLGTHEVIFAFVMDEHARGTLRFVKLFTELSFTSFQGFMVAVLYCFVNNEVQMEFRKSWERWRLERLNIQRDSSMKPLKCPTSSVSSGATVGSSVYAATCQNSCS
Conditions: Table 4-1; read-out: Receptor Binding (IC50) nM, GLP1R.

A further series concerns the target T5, CT receptor (Rattus norvegicus, UniProt P32214).
T5 construct: host or cells: general text: 'CHO cells or T47D cells'
T5 sequence (P32214 25-479 isoform P32214-2 limits assumed): T2 sequence (P32214 25-479 isoform P32214-2 limits assumed)
Kind of series: CT cyclase (C1A) assay. The series is classed as biochemical.

Like-named read-outs stand apart in the source and are kept apart here. A value given as a limit tells only on which side of the number the result lay.

Take “DF(P-CH2SO3)MGWMDFGKR KCNTATCATQRLANELVRLQTYPRTNVGSNTY [SEQ ID NO: 398]”: the IC50 at amylin receptors (b373, read-out: IC50 in an amylin receptor binding assay) was determined as 0.083 nM; at calcitonin receptor it was 0.044 nM; at CGRP receptors (b373, read-out: IC50 in a CGRP receptor binding assay), 4.4 nM. For GLP-1, the plasma half-life in series [1] was less than 5 min. Regarding “HGEGAFTSDLSKQLEEEAVRLFIEFLKN-NH2 [Compound 12, reference compound]”, at GLP-1 receptor, the IC50 was determined as 1.9 nM.

As for “[Ser117, dLeu119]leptin(116-122)-Amylin(1-7)-[^11,18Arg]sCT(8-27) -Amylin(33-37) [Compound 16]”, the IC50 at amylin receptors (RBA = receptor binding assay, read-out: IC50, amylin RBA) was 0.04 nM; on CT receptor, 2.2 nM; at CGRP receptors (read-out: IC50, CGRP RBA), 81 nM. For the substance “^29GlyGlyGly-Exendin(1-28),hAmylin(1-7)-^11,18Arg-sCt(8-27)-hAmylin(33-37) [Compound 15]”, at amylin receptors (read-out: Receptor Binding Assay, Amylin), the IC50 came out at 0.2 nM.

The record behind these values is US8076288B2 (priority 2004, dated 2011).
